Measurements taken from article PMC2518627, “Refinement of a radioreceptor binding assay for nicotinic acid adenine dinucleotide phosphate” (Analytical Biochemistry, 2007).

Test: Stability of nucleotides under different pH conditions (HPLC)
Format: physicochemical
Conditions: 1 mM, 6 h; for Stability at pH 7.2: 50 mM Hepes (pH 7.2); for Stability at pH 0.88: 0.75 M HClO4 (pH 0.88); for Stability at pH 8.6: 0.75 M HClO4/1 M KHCO3 (pH 8.6); for Stability at pH 11: 1 M K2CO3 (pH 11); for Stability at pH 9.1: 1 M KHCO3 (pH 9.1)
Experimental: All high-performance liquid chromatography (HPLC) was carried out on an anion exchange resin (AGMP1, Bio-Rad, USA), packed in 150 × 2.5-mm Omnifit columns, using a concave upward gradient of trifluoroacetic acid (TFA), delivered by a Waters 600e pump, as described previously. Detection was performed by a UV detector (Waters 2487, UK) at 254 nm.
NADP, NAADP, or NADPH (reduced-form NADP) (1 mM) was incubated in the following buffers for 6 h: 50 mM Hepes (pH 7.2), 0.75 M HClO4 (pH 0.88), 1 M KHCO3 (pH 9.1), 0.75 M HClO4/1 M KHCO3 (pH 8.6), or 1 M K2CO3 (pH 11). Samples were then neutralized with their base equivalence of either Tris base (for acidic solutions) or Hepes acid (for basic solutions) as applicable. Samples were analyzed by HPLC as described above, with elution times being determined from standard runs with known compounds.

Substance	Stability at pH 7.2	Stability at pH 0.88	Stability at pH 8.6	Stability at pH 11	Stability at pH 9.1
nicotinamide adenine dinucleotide phosphate [NADP]	remained stable	remained stable	remained stable	converted to a variety of products, including NAADP	remained stable
nicotinic acid adenine dinucleotide phosphate [NAADP]	remained stable	remained stable	remained stable	some conversion of NAADP to NADP	remained stable
